# Measured affinities in a library of Ab-91 heavy chain variants

Data: MIT Lincoln Laboratory AlphaSeq set, Engelhart et al. 2022, doi:10.1038/s41597-022-01779-4, as distributed in FLAb.

Target peptide (SARS-CoV-2 spike, HR2 region): PDVDLGDISGINAS

Parent scFv Ab-91: VL joined to VH by a 15-residue (Gly4Ser)3 linker. Changes lie in the heavy chain CDRs alone.
VL: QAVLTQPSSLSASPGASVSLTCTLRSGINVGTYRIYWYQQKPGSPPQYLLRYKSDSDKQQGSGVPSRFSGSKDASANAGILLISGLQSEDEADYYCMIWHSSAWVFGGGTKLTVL
VH: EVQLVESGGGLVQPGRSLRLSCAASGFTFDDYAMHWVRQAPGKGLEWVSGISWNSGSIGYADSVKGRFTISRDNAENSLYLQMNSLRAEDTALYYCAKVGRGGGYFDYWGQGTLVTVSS

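Phage display of a naive human antibody library on the peptide gave the parent. The library (AAYL51) carries one to three amino acid substitutions per variant, with no insertions or deletions. The assay is AlphaSeq: two haploid yeast populations carry antibody and antigen on their surface. Binding brings cells together so that they mate, and sequencing counts the barcode pairs among the diploids. Scores were corrected for input abundance and mapped to Kd with protein pairs of known affinity run in the same pool. The assay was run in three technical replicates.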

Changes read parent residue, position, new residue, counted from the first residue of the VH shown. Affinities are written as log10 Kd with Kd in nM; a lower number is a better binder. The mean shown is taken over the replicates in which the pair was detected. "no signal" marks a missing value. The strain was present, yet no cells mated with the target were sequenced in any replicate, which points to weak or no binding. The list is sorted by this average, lowest first, undetected variants last. In this assay the parent's reference entry averaged 1.86; its copy inside this library read 0.88. As a blank, each scFv also met three strains without target: over library AAYL51, 21% of these pairings were detected, typically at 4.54 and seldom below 3.26.

changes,"mean, log10 nM",replicates with signal
D30G S52G S57L,0.40,3/3
G56F D62S,2.06,2/3
A33G I58L V64T,2.07,3/3
F29I V64L K65S,2.19,3/3
F29D D30I N54T,2.76,3/3
D31Q I51L G102Y,2.88,3/3
G26W I58G G100C,3.09,1/3
D31S H35F S52L,3.69,1/3
S63T Y105Q F106P,3.71,1/3
S52W K65F Y108T,4.03,1/3
N54G I58M G59H,4.31,1/3
F27T V99Q F106V,4.60,2/3
D30S S52R G103Y,4.62,1/3
D31T S57H V64T,4.65,3/3
G26F D62I D107Y,4.66,1/3
H35Y G56L,4.69,3/3
D30N H35V R101N,4.70,1/3
S57I V99R Y108I,4.70,3/3
Y32V G50Y S63C,4.71,2/3
G50L S63G,4.72,2/3
M34S I58W G104L,4.84,1/3
H35F D107N,4.95,1/3
S52N S55E K65A,4.98,3/3
S52F G56W Y60H,4.99,3/3
G26A I58L F106L,5.10,1/3
F27V Y32N Y60P,5.10,2/3
T28R H35E S52V,5.30,1/3
S55R A61R Y108S,5.39,2/3
S57L V99T D107P,5.66,1/3
F29C N54T S57Y,5.70,2/3
F27K D30K G100V,5.73,1/3
F29R M34S Y60D,5.79,2/3
F29W K65E,5.89,1/3
T28N D31M A61N,6.36,1/3
G26C D30R A61P,no signal,0/3
S63F G102S Y108W,no signal,0/3
F27C H35P F106K,no signal,0/3
A33P G104S D107N,no signal,0/3
F27W D62Y G100L,no signal,0/3
Y32R G59M F106P,no signal,0/3
F27M A33M D107R,no signal,0/3
F29L S52E I58Y,no signal,0/3
V64A G102M G104D,no signal,0/3
G26I V64G,no signal,0/3
F27A A61K G100D,no signal,0/3
Y32G V64R Y105N,no signal,0/3
G50T G56K I58A,no signal,0/3
G26N I58R F106G,no signal,0/3
Y32S Y60E G102D,no signal,0/3
Y32P V99G,no signal,0/3
V64C V99S Y108T,no signal,0/3
V64D G102L D107I,no signal,0/3
F29H D62Y K65Y,no signal,0/3
D31H A61D,no signal,0/3
S52Q V64M G104C,no signal,0/3

Top 7 of the variants detected in all replicates, tightest first:

{"changes": "D30G S52G S57L", "mean, log10 nM": "0.40", "replicates with signal": "3/3"}
{"changes": "A33G I58L V64T", "mean, log10 nM": "2.07", "replicates with signal": "3/3"}
{"changes": "F29I V64L K65S", "mean, log10 nM": "2.19", "replicates with signal": "3/3"}
{"changes": "F29D D30I N54T", "mean, log10 nM": "2.76", "replicates with signal": "3/3"}
{"changes": "D31Q I51L G102Y", "mean, log10 nM": "2.88", "replicates with signal": "3/3"}
{"changes": "D31T S57H V64T", "mean, log10 nM": "4.65", "replicates with signal": "3/3"}
{"changes": "H35Y G56L", "mean, log10 nM": "4.69", "replicates with signal": "3/3"}